Experimental data: patent US20050003431A1, “Monovalent, multivalent, and multimeric MHC binding domain fusion proteins and conjugates, and uses therefor” (priority 1996, published 2005)

Key:
[1] = tested on: DR2/MBP(85-99) specific T cell clones; assay: FACS staining of T cells with DR2/peptide complexes on streptavidin fluorescent microbeads; type: cell-based, human; conditions: 40 nm streptavidin polystyrene beads, approximately 10^6 T cells
Excerpt: (§1) DR2-biotin tag molecules were used to generate highly multimeric MHC binding domain conjugates for the specific staining of antigen specific T cells. […] Polystyrene beads similar in size to viral particles (40 nm) were selected based on their ability to remain soluble; these beads pellet in an ultracentrifuge but not under the low G-forces used to wash cells. Staining of antigen specific T cells was examined by FACS. For FACS staining, biotinylated mAbs specific for CD4 (positive control) and a murine MHC class II (10-2.16) (negative control) were used as controls. Approximately 10^6 T cells were used for each assay. T cells were pelleted and resuspended in cold PBS, 0.1% sodium azide.

[2] = tested on: control T cell clones (HY.1B11, Go.P3, Kw-TTI); assay: FACS staining of control T cell clones with DR2/peptide complexes on streptavidin fluorescent microbeads; type: cell-based, human
Excerpt: as §1

B1: multivalent DR2/MBP(85-99) peptide complexes (conjugate)
MHC II alpha: [not shown - about 200 residues]VDGGGGGLTDTLQAETDQLEDEKSALQTEIANLLKEKEKLEFILAAHLGGIFEAMKMELRD
MHC II beta: EGDTRPRFLWQPKRECHFFNGTERVRFLDRYFYNQEESVRFDSDVGEFRAVTELGRPDAEYWNSQKDILEQARAAVDTYCRHNYGVVESFTVQRRVQPKVTVYPSKTQPLQHHNLLVCSVSGFYPGSIEVRWFLNGQEEKAGMVSTGLIQNGDWTFQTLVMLETVPRSGEVYTCQVEHPSVTSPLTVEWRARSESAQSKVDGGGGGRIARLEEKVKTLKAQNSELASTANMLREQVAQLKQKVMNH
peptide: PGSRPHLIRLFSRDA
[1]
  FACS staining of DR2/MBP(85-99) specific T cell clones: Staining was observed
  staining intensity compared with the CD4 mAb: similar
[2]
  FACS staining of control T cell clones: No staining was observed
